Bioassay records from PubChem.
The list is not random: actives were taken first. Their share in the collection is about 1.6%.
ARNT TACC3 PPI = disruptors of ARNT/TACC3 protein interaction, primary screen, biochemical, AlphaScreen, single concentration | inhibition, % at 9.99 µM | 0.66% of 390,000 active | AlphaScreen His-ARNT PAS-B/GST-TACC3 binding, luminescence; TACC3 fragment carries E629A point mutation | AID 623870, 2012 | Transforming acidic coiled-coil-containing protein 3 (Homo sapiens), Q9Y6A5;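 active means mean inhibition of replicates at least 50% and at least half of replicates each reaching 50%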;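 further: 0% = complete ARNT plus TACC3 wells and 100% = ARNT alone without TACC3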
PglD inh = C. jejuni PglD acetyltransferase inhibitors, primary screen, biochemical, DTNB colorimetric, single point. purified PglD enzyme, DTNB colorimetric CoA detection. 0.098% of 360,000 active. AID 602405, 2012. inhibition, % at 12.5 µM. UDP-N-acetylbacillosamine N-acetyltransferase PglD (Campylobacter jejuni); in the data active means inhibition above about 16%, passing the limit was not always enough
CAL PDZ FP-1 = CAL PDZ peptide-binding inhibitors, primary screen, biochemical, fluorescence polarization, Cer-tagged CAL PDZ, HTS; Golgi-associated PDZ and coiled-coil motif-containing protein (Homo sapiens), Q9HD26; purified CAL PDZ, TMR-peptide fluorescence polarization, 1 h; inhibition, % at 20 µM; 0.02% of 330,000 active; AID 504414, 2011;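 active means highest replicate inhibition of at least 40%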;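 further: plate controls were DMSO neutral control wells for no effect and unlabeled competitor peptide control wells for full effect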
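material = purified tagged CAL PDZ domain construct (CerCALP) | buffer or medium = sodium phosphate/NaCl buffer pH 7.4 with TCEP, IgG, Thesit | reagent = TMR-labelled reporter peptide T*-PRC34 bound in PDZ groove | incubation = 1 h room-temperature incubation prior to read | measured by = fluorescence polarization (mP) | evaluation = percent inhibition from loss of millipolarization | control set = unlabelled peptide and DMSO controls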
UUG fidelity = yeast start codon fidelity modulation; AID 602363; activity score, % at 18.7 µM; S. cerevisiae UUG-firefly luciferase reporter, luminescence/redox ratio; 0.13% of 350,000 active;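 active means replicate mean at a twofold rise or more, about +100% in these data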;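 further: firefly luciferase made from a UUG start codon reports start codon fidelity; reporter light over untreated wells divided by growth signal over untreated wells; some hits fall short of that in this replicate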
Vif imaging = HIV Vif self-association inhibitors, primary screen, imaging, HEK293T, single point. 0.35% of 340,000 active. HEK293T cells, Vif self-association by quenched fluorescence, 24 h. inhibition, % at 7.49 µM. AID 602346, 2012; in the data active means inhibition above about 50%, passing the limit was not always enough
CAL PDZ FP-2 = untagged CAL PDZ binding inhibitors, primary screen, biochemical, fluorescence polarization, HTS | 0.92% of 300,000 active | AID 602252, 2012 | Golgi-associated PDZ and coiled-coil motif-containing protein (Homo sapiens), Q9HD26 | purified CAL PDZ, TMR-peptide fluorescence polarization, 1 h | inhibition, % at 24.9 µM;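 active means mean inhibition of at least 30% with at least half of replicates also reaching 30%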;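 further: 0% = DMSO neutral control and 100% = excess unlabeled competitor peptide PRC23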
Starred values were filed as active, the others as inactive; . = not tested or not shown.

1) CC(=O)c1cccc(NS(=O)(=O)c2ccc(NC(=O)N3CCCCC3)cc2)c1
2) CC(=O)c1cccc(NC(=O)N2CCCCCC2)c1
3) CO[C@@H]1CN(C)C(=O)c2cc(NC(=O)C3CC3)ccc2OC[C@@H](C)N(CC2CCOCC2)C[C@H]1C
4) Cc1cccc(C(=O)Nc2cccc(NC(=O)c3ccccc3)c2)c1
5) Cc1cccc(NC2=C(NC(=O)c3ccccc3)C(=O)c3ccccc3C2=O)c1
6) O=C(NC1=C(Nc2ccc(Cl)cc2)C(=O)c2ccccc2C1=O)c1ccccc1
7) O=C(NCC1CCCCC1)[C@H]1[C@H](CO)[C@H]2Cn3c(ccc(-c4ccccc4)c3=O)[C@@H]1N2
8) CC(=O)N(C)C[C@H]1OCc2ccccc2-c2ccccc2C(=O)N([C@H](C)CO)C[C@H]1C
Screen / compound no.	1	2	3	4	5	6	7	8
ARNT TACC3 PPI	-1	-2	.	-5	39*	51*	-10	-25
PglD inh	-1	2	1	-5	-1	.	0	0
CAL PDZ FP-1	-1	-2	.	-3	1	1	.	.
UUG fidelity	-10	3	-3	0	-21	.	.	.
Vif imaging	-22	.	.	-1	0	1	.	.
CAL PDZ FP-2	121*	-1	.	-4	1	-1	.	.

The last three entries of the section before come first, to join the parts.
6) O=C(NC1=C(Nc2ccc(Cl)cc2)C(=O)c2ccccc2C1=O)c1ccccc1
7) O=C(NCC1CCCCC1)[C@H]1[C@H](CO)[C@H]2Cn3c(ccc(-c4ccccc4)c3=O)[C@@H]1N2
8) CC(=O)N(C)C[C@H]1OCc2ccccc2-c2ccccc2C(=O)N([C@H](C)CO)C[C@H]1C
9) O=C(c1ccc(F)cc1)N1C[C@H]2[C@@H](c3ccccc31)[C@H](CO)N2C(=O)c1ccc(F)cc1
10) CC(=O)N(C)C[C@H]1Oc2ncc(-c3ccc(C#N)cc3)cc2C(=O)N([C@H](C)CO)C[C@H]1C
11) Cc1ccc(C(=O)N/N=C/c2ccc(-c3ccccc3[N+](=O)[O-])o2)cn1
12) Cc1ccc(C(=O)N/N=C/c2ccc(OC(=O)c3ccccc3Cl)cc2)cn1
13) CO[C@@H]1CN(C)C(=O)c2cc(NC(=O)c3cc(C)on3)ccc2OC[C@@H](C)NC[C@@H]1C
14) COc1cccc(NC(=O)C(NC2CCCC2)c2ccccc2)c1 (stereo not drawn)
15) Cc1ccc(NC(=O)C(NC2CCCC2)c2ccccc2)cc1Cl (stereo not drawn)
16) CO[C@@H]1CN(C)C(=O)c2cc(NC(=O)Nc3ccccc3F)ccc2OC[C@@H](C)NC[C@@H]1C
Screen / compound no.	6	7	8	9	10	11	12	13	14	15	16
ARNT TACC3 PPI	51*	-10	-25	-3	-6	27*	-3	-7	3	-2	.
PglD inh	.	0	0	2	-4	.	4	-2	.	.	-4
CAL PDZ FP-1	1	.	.	.	.	-2	-3	.	0	-1	.
UUG fidelity	.	.	.	21	1	.	-16	.	.	.	-5
Vif imaging	1	.	.	.	.	3	58*	.	-20	1	.
CAL PDZ FP-2	-1	.	.	.	.	0	-4	.	-3	58*	.

17) CO[C@H]1CN(C)C(=O)c2cc(NC(=O)C3CC3)ccc2OC[C@@H](C)N(Cc2ccc(F)cc2)C[C@H]1C
18) O=C1C2C3C=CC(C3)C2C(=O)N1c1ccc2ccccc2c1 (stereo not drawn)
19) O=C1C2C3CCC(C3)C2C(=O)N1c1ccc2ccccc2c1 (stereo not drawn)
20) C/C(=N\NC(=O)c1c[nH]c2ccccc12)c1ccccn1
21) C/C(=N\NC(=O)c1cc2ccccc2cc1O)c1cc2ccccc2o1
22) C/C(=N\NC(=O)CCCNc1ccc(C)cc1)c1ccccn1
23) C/C(=N\NC(=O)c1cc2ccccc2cc1O)c1ccccn1
24) C/C(=N\NC(=O)c1c[nH]c2ccccc12)c1ccco1
25) C/C(=N\NC(=O)CCCNc1ccccc1)c1ccncc1
26) C[C@@H]1CN([C@H](C)CO)C(=O)c2cc(C3=CCCC3)cnc2O[C@H]1CN(C)C(=O)c1ccc2c(c1)OCO2
27) COc1ccccc1-c1cnc2c(c1)C(=O)N([C@@H](C)CO)C[C@H](C)[C@@H](CN(C)C(=O)CN(C)C)O2
Screen / compound no.	17	18	19	20	21	22	23	24	25	26	27
ARNT TACC3 PPI	-11	-9	-13	77*	0	48*	69*	30	4	3	-6
PglD inh	2	-18	-2	.	0	.	1	3	.	-1	-6
CAL PDZ FP-1	.	-1	-1	8	-3	0	-2	0	0	.	.
UUG fidelity	-17	2	2	.	-14	.	-50	-8	.	.	-3
Vif imaging	.	5	4	3	-10	1	5	-13	6	.	.
CAL PDZ FP-2	.	-3	62*	-11	-3	-18	2	-2	-5	.	.
